Results as given in ChEMBL document CHEMBL3804753, “Substituted quinolines as noncovalent proteasome inhibitors” (Bioorg Med Chem, 2016).

Protein sequences, listed by entry. Tags and fused reporters are not part of them. Lines headed by an entry give the natural chain unless they say otherwise; changes in a name come on top.
UniProt P28074: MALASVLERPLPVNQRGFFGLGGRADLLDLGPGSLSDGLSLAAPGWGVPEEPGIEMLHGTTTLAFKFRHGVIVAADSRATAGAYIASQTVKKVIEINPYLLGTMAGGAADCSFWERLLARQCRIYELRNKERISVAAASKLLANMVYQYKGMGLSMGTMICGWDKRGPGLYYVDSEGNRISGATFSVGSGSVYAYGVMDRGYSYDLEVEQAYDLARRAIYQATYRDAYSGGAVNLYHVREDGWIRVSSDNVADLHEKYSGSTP

What was measured:
[1] = molecular target: T1, Proteasome Macropain subunit MB1 (Homo sapiens, UniProt P28074); test: Inhibition of human 20S proteasome chymotryptic-like activity using Suc-LLVY-AMC as substrate expressed in human UTMC2 cells assessed as free 7-amino-4-methylcoumarin release preincubated for 22 hrs followed by substrate addition by fluorescent spectrophotometric analysis; type: cell-based
[2] = molecular target: T1, Proteasome Macropain subunit MB1; test: Inhibition of human 20S proteasome chymotryptic-like activity using Suc-LLVY-AMC as substrate expressed in human KMH11 cells assessed as free 7-amino-4-methylcoumarin release preincubated for 22 hrs followed by substrate addition by fluorescent spectrophotometric analysis; type: cell-based
[3] = molecular target: T1, Proteasome Macropain subunit MB1; test: Inhibition of human 20S proteasome chymotryptic-like activity using Suc-LLVY-AMC as substrate expressed in human KMS18 cells assessed as free 7-amino-4-methylcoumarin release preincubated for 22 hrs followed by substrate addition by fluorescent spectrophotometric analysis; type: cell-based
[4] = molecular target: T1, Proteasome Macropain subunit MB1; test: Inhibition of human 20S proteasome chymotryptic-like activity using Suc-LLVY-AMC as substrate expressed in human OCI-AML2 cells assessed as free 7-amino-4-methylcoumarin release preincubated for 22 hrs followed by substrate addition by fluorescent spectrophotometric analysis; type: cell-based
[5] = molecular target: T1, Proteasome Macropain subunit MB1; test: Inhibition of human 20S proteasome chymotryptic-like activity using Suc-LLVY-AMC as substrate expressed in human NB4 cells assessed as free 7-amino-4-methylcoumarin release preincubated for 22 hrs followed by substrate addition by fluorescent spectrophotometric analysis; type: cell-based, NB-4
[6] = molecular target: T1, Proteasome Macropain subunit MB1; test: Inhibition of human 20S proteasome chymotryptic-like activity using Suc-LLVY-AMC as substrate expressed in human KG1A cells assessed as free 7-amino-4-methylcoumarin release preincubated for 22 hrs followed by substrate addition by fluorescent spectrophotometric analysis; type: cell-based
[7] = molecular target: T1, Proteasome Macropain subunit MB1; test: Inhibition of human 20S proteasome chymotryptic-like activity using Suc-LLVY-AMC as substrate expressed in human MDAY-D2 cells assessed as free 7-amino-4-methylcoumarin release preincubated for 22 hrs followed by substrate addition by fluorescent spectrophotometric analysis; type: cell-based
[8] = molecular target: T1, Proteasome Macropain subunit MB1; test: Inhibition of human 20S proteasome chymotryptic-like activity using Suc-LLVY-AMC as substrate expressed in human K562 cells assessed as free 7-amino-4-methylcoumarin release preincubated for 22 hrs followed by substrate addition by fluorescent spectrophotometric analysis; type: cell-based

Measured: IC50

Nc1ccc(O)c2ncccc12
600 nM: all assays above
